# Yeast mating assay B: variants of the scFv Ab-14

Reference: Li et al. 2023, doi:10.1038/s41467-023-39022-2. File: FLAb, binding data.

Target peptide (SARS-CoV-2 spike, HR2 region): PDVDLGDISGINAS

Ab-14 is the parent antibody, in scFv form: VH, then a (GGGGS)3 linker, then VL. The light chain is unchanged in all variants.
VH: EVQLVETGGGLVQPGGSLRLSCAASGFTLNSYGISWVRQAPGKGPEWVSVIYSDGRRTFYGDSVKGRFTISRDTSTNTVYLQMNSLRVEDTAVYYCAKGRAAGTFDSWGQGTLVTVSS
VL: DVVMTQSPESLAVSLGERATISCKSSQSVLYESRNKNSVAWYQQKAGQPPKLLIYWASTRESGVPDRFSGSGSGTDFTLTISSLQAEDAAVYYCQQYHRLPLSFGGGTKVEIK

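This is the validation round: designs drawn from the data on random variants, tested in the same kind of assay. Several design methods are mixed in this list. Affinity was read by AlphaSeq, a pooled yeast mating assay with surface-displayed partners. Mating (16 h, 30 °C) was followed by selection of diploids and sequencing of their barcodes. Each replicate has its own calibration line, from reference interactions of the BCL2 family. Mating was done six times.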

Variants are written as CDR1, CDR2 and CDR3 of the heavy chain (limits as in the source). Parent: GFTLNSYGIS, VIYSDGRRTFYGDSVK, GRAAGTFDS. Numbers give log10(Kd / nM), so 0 is 1 nM and 3 is 1 µM. Smaller is tighter. The mean shown is taken over the replicates in which the pair was detected. A pair that was not seen in that replicate is written "nd"; this usually means weak binding, but a binder can also be missed. Order: sorted from the lowest average up, undetected variants last. Values of this round are not directly comparable with the first-round values of the same sequences. The authors averaged sequences with at least three values out of six and counted those with two or fewer as poor binders. The parent sequence was in this pool as ten entries: three were never detected, three once, and four in most replicates, with averages from 0.34 to 2.37. Empty control strains, which show no peptide, gave a signal in 1% of pairings with all heavy chain designs; the median was 2.08 and 95% of these signals were weaker than 0.84. No background was subtracted.

CDR-H1 | CDR-H2 | CDR-H3 | replicates, log10 nM | log10 Kd (nM), mean
GFDLNEYGIS | VIYADGRRTFYTDDVK | GNVAGTFDL | -0.45 / -0.56 / -0.92 / -1.54 / -0.93 / -0.91 | -0.88
GFDLNEYGIS | VIYADGRRTFYADSVK | GQHAGTFDI | -0.67 / -0.45 / -0.85 / -0.71 / -0.63 / 0.05 | -0.54
GFDLNEYGIS | VIYADGKRSAYADSVK | GEVAGTFDV | -0.51 / -0.63 / -0.54 / -0.80 / -0.25 / -0.51 | -0.54
GFDLNEYGIS | VIYADGMRTVYTDSVK | GENAGTFDI | -0.07 / -0.43 / -0.65 / -0.50 / -0.87 / -0.44 | -0.49
GFDLDEYGIS | VIYADGMRTAYADSVK | GQVAGTFDQ | -0.18 / -0.14 / -0.40 / -0.60 / -0.05 / -0.07 | -0.24
GFSLNSYGIS | VIYSDGRRTFYGDDVK | GSEAGTFDS | 0.26 / -0.42 / -0.27 / -0.41 / -0.17 / -0.27 | -0.21
GFDLNEYGIS | VIYADGMRTSYADSVK | GNNAGTFDQ | -0.19 / 0.37 / 0.27 / -0.31 / -0.52 / -0.38 | -0.13
GFDLNEYGIS | VIYADGVRTQYADSVK | GNQAGTFDV | 0.18 / -0.08 / -0.20 / -0.46 / -0.17 / 0.17 | -0.10
GFDLNEYGIS | VIYADGVRTAYADSVK | GNQAGTFDM | 0.62 / -0.39 / 1.03 / 0.68 / -0.31 / 0.12 | 0.29
GFTLNSYGIS | VIYSDGRRTFYGDNVK | GREAGTFDT | 0.03 / 0.30 / 0.58 / 0.31 / 0.09 / 0.59 | 0.31
GFELNAYGIS | VIYSDGRRTFYADSVK | GRTAGTFDS | 0.36 / 0.64 / -0.44 / -0.12 / 1.48 / 0.19 | 0.35
GMSLGEYGIS | VIYADGERTNYASNFK | GVMAGTFDV | 0.52 / 0.62 / 0.17 / 0.24 / 0.40 / 0.50 | 0.41
GFQLNEYGIS | VIYSDGRRTFYSDSVK | GRQAGTFDT | 0.47 / 0.86 / 0.17 / 0.45 / 0.64 / 0.23 | 0.47
GFDLNSYGIS | VIYSDGKRTFYADSVK | GQAAGTFDS | 0.47 / 0.44 / 0.30 / 0.78 / 0.64 / 0.35 | 0.50
GQDINEYGIS | VIYADGIRTAYAISVK | GYHGSQFDI | nd / 0.87 / 0.34 / 0.95 / 0.04 / 0.38 | 0.52
GFSLNSYGIS | VIYSDGRRTFYGDSVK | GWVAGTFDK | 0.20 / 0.21 / 0.38 / 0.63 / -0.05 / 1.74 | 0.52
GFGLNEYGIS | VIYSDGRRTFYGWSVK | GRTAGTFDS | nd / nd / 1.25 / nd / nd / nd | 1.25
GFSLNKYGIS | VIYSDGRRTFYGDDVK | GRAAGTFDS | 1.42 / 1.40 / 1.11 / 0.84 / 1.53 / 1.85 | 1.36
GFTLESYGIS | VIYSDGRRTFYDQSVK | GRSAGTWDS | nd / nd / nd / nd / nd / nd | nd
GFNLDEYGIS | VIYADGRRMSYTDSVK | GGLGKYLTD | nd / nd / nd / nd / nd / nd | nd
GFSFDEYGIS | VIYADGKRQFYADTVK | GNKDMTFDI | nd / nd / nd / nd / nd / nd | nd
GFTLNSYGRS | VIYSDGRRTFYADSVK | GKAAGTFDS | nd / nd / nd / nd / nd / nd | nd
GFDLDEYGIS | VIYADGMRTAYADSVK | GENAGTFVI | nd / nd / nd / nd / nd / nd | nd
GFWLNSYGIS | VIYSDGRRTAYGDSVK | GRAAGTFDS | nd / nd / nd / nd / nd / nd | nd
RFTLNEYGIS | VIYSDGRRTFATISVK | GRFAGTFDS | nd / nd / nd / nd / nd / nd | nd
GKSLEEYGIS | VIYADGQRSAYAETVK | GNNGGVFIY | nd / nd / nd / nd / nd / nd | nd
GGDLKEYGIS | VIYADGNRKYYADNVK | GQNGDVLNI | nd / nd / nd / nd / nd / nd | nd
GFDLNSQGIS | VIYSDGWRTFYDDQVK | GRAAQTFDT | nd / nd / nd / nd / nd / nd | nd
GFTLNSYGIS | VIYSDGRRTFYGDKVK | GRAAKTFDQ | nd / nd / nd / nd / nd / nd | nd
GFDLDQYGIS | VIYADGMRAGYADSVK | GHWGGKFLM | nd / nd / nd / nd / nd / nd | nd
GMNIDEYGIS | VIYADGLRYHYANSVK | GEMAGFFMV | nd / nd / nd / nd / nd / nd | nd

Picked from the list: the 2 lowest averages where every replicate gave a value.

CDR-H1,CDR-H2,CDR-H3,"replicates, log10 nM","log10 Kd (nM), mean"
GFDLNEYGIS,VIYADGRRTFYTDDVK,GNVAGTFDL,-0.45 / -0.56 / -0.92 / -1.54 / -0.93 / -0.91,-0.88
GFDLNEYGIS,VIYADGRRTFYADSVK,GQHAGTFDI,-0.67 / -0.45 / -0.85 / -0.71 / -0.63 / 0.05,-0.54